Data published in publication PMC8524854, “A novel dual-prodrug carried by cyclodextrin inclusion complex for the targeting treatment of colon cancer” (Journal of Nanobiotechnology, 2021).

Tested on: Kunming mice
Format: in vivo
Settings: 15th day after single oral gavage
Procedure: All animals were given a single oral gavage of 0.2 mL of different dosage forms, and their body weight was monitored every day. Meanwhile, the toxicity and mortality of all animals were observed every day. The conventional changes such as the cases of the diet, urine, and feces were recorded. On the 15th day after treatment, the blood of each group was collected from the heart and centrifuged at 1,000 × g for 10 min to collect serum. An automated biochemical analyzer was used to detect serum alanine aminotransferase (ALT), aspartate aminotransferase (AST), blood urea nitrogen (BUN), and creatinine (Cr). Meanwhile, the heart, liver, lung, and kidney were quickly excised, washed with normal saline, and weighed. The visceral index is estimated according to the following formula as Viscera Index (%) = Viscera Weight / Body Weight × 100. And then, all the tissues were fixed with 10% formalin and stained with hematoxylin & eosin (H&E) for pathological analysis.

Q: How did the Heart index turn out when `CCCC(=O)[O-].[Na+]` [NaB, sodium butyrate] was run?
A: The Heart index was 0.83 ± 0.12%.

Q: What about the Kidney index of the same molecule?
A: The Kidney index was 2.31 ± 0.26%.

Q: And the Liver index?
A: The Liver index was 7.61 ± 1.33%.

Q: What about the Lung index of the same molecule?
A: Its Lung index is 0.84 ± 0.31%.

Q: What about the Cr (serum) of the same molecule?
A: Its Cr is 8.32 ± 0.98 µmol/L.
